Assay: Oral bioavailability in mouse at 10 mg/kg measured upto 24 hrs by LC-MS analysis
Format: ADME, organism-based
Conditions: in vivo

bioavailability: 20.7%
Compound: O=C1CCN(c2cc(C(=O)N3CCC(CC4CCN(c5ccc(-c6cnc7[nH]cc(-c8cnn(CC(F)(F)F)c8)c7n6)cn5)CC4)CC3)ccc2Cl)C(=O)N1
